{"source": "patent US20250129430A1", "about": "“HIGH ATP-AFFINITY PROTEIN AS THERAPEUTIC TARGET FOR INTRACTABLE CANCER MOLECULAR SUBTYPES AND INHIBITOR THEREOF” (VeraVerse Co., Ltd., priority 2021, published 2025)", "system": "FU97", "assay": "Cell viability drug screen, 12-point dose-response AUC", "format": "cell-based, human", "design": "scale not given here", "details": "FU97 cells; 72 hours", "description": "Cells cultured for cell-based drug assay were inoculated into a 96-well white optical plate (Corning) at 5×10^3 cells per well. After 24 hours after inoculation, a 2.5 MJT (primary screen) or a half-log 12-serial diluent (secondary screen) of the pharmacological compound contained in DMSO is added to the cells with a robot using a BioMek FXp liquid processor (Beckman) to add to the cells at 50 mM. The final drug concentration in the 5 ns range and the DMSO specification control (0.5%) were calculated. The cells were then further incubated at 37° C. in a 5% CO2 incubator for 72 hours prior to measuring cell viability using the extra-GLO assay kit (Promega). The luminescent properties were measured after 15 min incubation at room temperature using a plate stacker equipped with a plate stacker. The normalized viability for the DMSO-based control was measured to generate a cell line-specific 12-point dose-response curve for each pharmacological compound, and then the area under the curve (AUC) was calculated using a trapezoidal method.", "data": [{"smiles": "Cc1ccc(C(=O)N(CCCN)[C@@H](c2nc3cc(Cl)ccc3c(=O)n2Cc2ccccc2)C(C)C)cc1", "note": "[Ispinesib (SB-715992), Ispinesib]", "values": [{"measurement": "Average Area Under the Viability Curve (AUC), AUC norm value", "result": 1.3405}]}]}
